Read-outs that look alike come from different tables or passages of the source.

The nature of data set [1]: Release test for conjugates obtained from Examples 18 to 21 (Test Example A5). Format: physicochemical. The following applies: 0.1% in 20 mM sodium phosphate buffer pH 7.0, 36°C. The source says:
The amount of the dissociated diclofenac component which is present in an initial state (storage: Day 0) immediately after the dissolution, and the amount of diclofenac ester which has been forced to dissociate by using a base were subjected to quantitative analysis based on ODS-HPLC. […] From the ratio between the obtained amount of the dissociated diclofenac component at each time point and the amount of dissociated diclofenac component resulting from forced dissociation, the dissociation ratio (%) was calculated. For a pre-treatment of a HPLC sample, OASIS HLB was used, and a fraction eluted by acetonitrile was analyzed. HPLC conditions are as follows. column: […] temperature: 35° C.

Data set [2] can be described thus: Release test for conjugates obtained from Examples 26 to 28, citrate buffer pH 5.1 (Test Example A7). Format: physicochemical. As for the experimental part: The amount of the dissociated diclofenac component which is present in a solution in an initial state (storage: Day 0) immediately after the dissolution was subjected to quantitative analysis based on ODS-HPLC. […] Meanwhile, the method for pre-treatment of HPLC sample is described below. Methanol (1 mL) was added to the stored solution (1 g). After dilution and addition of acetonitrile to 20 mL, the hyaluronic acid component was allowed to precipitate. The obtained supernatant was used as a HPLC sample. HPLC conditions are as follows. column: […] flow rate: 1 mL/min temperature: 35° C.

The nature of data set [3]: Release test for conjugates obtained from Examples 26 and 32 at 60, 40, 25°C (Test Example A9). Format: physicochemical. Here is the method: The amount of the dissociated diclofenac component which is present in a solution in an initial state (storage: Day 0) immediately after the dissolution was subjected to quantitative analysis based on ODS-HPLC. Other aliquot was stored at 60° C., 40° C., or 25° C. immediately after the dissolution, the decomposition amount of diclofenac ester was similarly subjected to quantitative analysis after lapse of the each designated time. From the ratio between the obtained amount of the dissociated diclofenac component at each time point and the amount of dissociated diclofenac component resulting from forced dissociation, the dissociation ratio (%) was calculated. For a pre-treatment of a HPLC sample, OASIS HLB was used, and a fraction eluted by acetonitrile was analyzed. HPLC conditions are as follows. column: […] flow rate: 1 mL/min temperature: 35° C.

Data set [4] in a line: Release test for conjugates obtained from Examples 22 to 25 (Test Example A6). In kind it is physicochemical. The settings on record: 0.1% in 20 mM sodium phosphate buffer pH 7.0, 36°C. The source says:
(§1) The amount of the dissociated diclofenac component which is present in an initial state (storage: Day 0) immediately after the dissolution, and the amount of diclofenac ester which has been forced to dissociate by using a base were subjected to quantitative analysis based on ODS-HPLC. […] From the ratio between the obtained amount of the dissociated diclofenac component at each time point and the amount of dissociated diclofenac component resulting from forced dissociation, the dissociation ratio (%) was calculated. For a pre-treatment of a HPLC sample, OASIS HLB was used, and a fraction eluted by acetonitrile was analyzed. HPLC conditions are as follows. column: […] flow rate: 1 mL/min temperature: 35° C.

A short description of data set [5]: Release test for conjugates obtained from Examples 15 to 17 (Test Example A4). In kind it is physicochemical. The settings on record: 0.1% in 20 mM sodium phosphate buffer pH 7.0, 36°C.
Text: as §1

“diclofenac (1-amino-2-butanol)-chondroitin sulfate [Example A5-2]”: the diclofenac dissociation ratio is reported as 0.0% in data set [1] (day 0); 0.1% in data set [1] (day 1); 0.3% in data set [1] (day 2); 0.6% in data set [1] (day 4); 1.0% in data set [1] (day 8).
In the case of “21-alanyl-betamethasone Introduced chondroitin sulfate [Compound 29-3]”, the drug dissociation ratio amounted to 0.4% (pH7.4, 36°C, day 0); 2.0% (pH7.4, 36°C, day 1); 3.6% (pH7.4, 36°C, day 2); 5.3% (pH7.4, 36°C, day 3); 8.7% (pH7.4, 36°C, day 4); 11.0% (pH7.4, 36°C, day 5). Also, the drug dissociation ratio (pH7.4, 36°C, day 6) stood at 12.2%; the drug dissociation ratio (pH7.4, 36°C, day 7) is 11.5%; the drug dissociation ratio (pH8.0, 36°C, day 0) is listed as 1.7%; the drug dissociation ratio (pH8.0, 36°C, day 1) is recorded as 6.3%; the drug dissociation ratio (pH8.0, 36°C, day 2) is 10.9%; the drug dissociation ratio (pH8.0, 36°C, day 3) is 16.1%. Further, the drug dissociation ratio is, setting by setting: (pH8.0, 36°C, day 4) 21.7%; (pH8.0, 36°C, day 5) 26.1%; (pH8.0, 36°C, day 6) 28.3%; (pH8.0, 36°C, day 7) 29.3%.
As for “Diclofenac(1-amino-2-propanol)-hyaluronic acid”, the “Content of dissociated diclofenac (w/w %)” value in data set [2] (1% in sodium citrate buffer pH 5.1, 40°C, after 4 weeks) is 0.00 w/w %; in data set [2] (1% in sodium citrate buffer pH 5.1, immediately after dissolution) it was 0.00 w/w %. For the same substance, the diclofenac dissociation ratio turned out to be 0.0% in data set [3] (1% in sodium citrate buffer pH 5.1, 25°C, 0 y (year)); 1.4% in data set [3] (1% in sodium citrate buffer pH 5.1, 25°C, 0.5 y (year)); 2.7% in data set [3] (1% in sodium citrate buffer pH 5.1, 25°C, 1 y (year)); 0.0% in data set [3] (1% in sodium citrate buffer pH 5.1, 40°C, 0 m (month)); 3.5% in data set [3] (1% in sodium citrate buffer pH 5.1, 40°C, 4 m (month)); 5.2% in data set [3] (1% in sodium citrate buffer pH 5.1, 40°C, 6 m (month)). Further, the diclofenac dissociation ratio in data set [3] (1% in sodium citrate buffer pH 5.1, 40°C, 9 m (month)) was 7.4%; in data set [3] (1% in sodium citrate buffer pH 5.1, 40°C, 12 m (month)), 9.3%; in data set [3] (1% in sodium citrate buffer pH 5.1, 60°C, day 0), 0.0%; in data set [3] (1% in sodium citrate buffer pH 5.1, 60°C, day 7), 1.9%; in data set [3] (1% in sodium citrate buffer pH 5.1, 60°C, day 14), 3.3%; in data set [3] (1% in sodium citrate buffer pH 5.1, 60°C, day 21) it was 4.6%.
With “diclofenac (1-amino-2-butanol)-hyaluronic acid [Example A6-2]”, the diclofenac dissociation ratio in data set [4] (day 0) is 0.0%; in data set [4] (day 1), 0.6%; in data set [4] (day 2) it was 1.2%; in data set [4] (day 4), 2.2%; in data set [4] (day 8) it was 4.5%.
Consider “21-glycyl-betamethasone Introduced chondroitin sulfate [Compound 30-3]”, for which the drug dissociation ratio is, setting by setting: (pH7.4, 36°C, day 0) 1.1%; (pH7.4, 36°C, day 1) 5.7%; (pH7.4, 36°C, day 2) 9.3%; (pH7.4, 36°C, day 3) 11.0%; (pH7.4, 36°C, day 4) 15.4%; (pH7.4, 36°C, day 5) 19.6%. Also, the drug dissociation ratio runs as follows: (pH7.4, 36°C, day 6) 22.1%; (pH7.4, 36°C, day 7) 22.0%; (pH8.0, 36°C, day 0) 4.3%; (pH8.0, 36°C, day 1) 14.4%; (pH8.0, 36°C, day 2) 23.5%; (pH8.0, 36°C, day 3) 29.3%. For the same substance, the drug dissociation ratio is on record as 37.8% (pH8.0, 36°C, day 4); 44.7% (pH8.0, 36°C, day 5); 48.7% (pH8.0, 36°C, day 6); 50.6% (pH8.0, 36°C, day 7).
On to “diclofenac (1-amino-2-propanol)-chondroitin sulfate [Example A4-1]”, for which the diclofenac dissociation ratio was 0.0% in data set [5] (day 0); 0.7% in data set [5] (day 1); 1.1% in data set [5] (day 2); 1.8% in data set [5] (day 4); 3.0% in data set [5] (day 8).
Consider “21-isoleucyl-betamethasone Introduced chondroitin sulfate [Compound 31-3]”, for which the drug dissociation ratio is on record as 0.5% (pH7.4, 36°C, day 0); 0.2% (pH7.4, 36°C, day 1); 0.2% (pH7.4, 36°C, day 2); 0.2% (pH7.4, 36°C, day 3); 1.5% (pH7.4, 36°C, day 4); 2.1% (pH7.4, 36°C, day 5). In addition, the drug dissociation ratio by setting is: (pH7.4, 36°C, day 6) 1.9%; (pH7.4, 36°C, day 7) 0.6%; (pH8.0, 36°C, day 0) 0.0%; (pH8.0, 36°C, day 1) 0.5%; (pH8.0, 36°C, day 2) 0.7%; (pH8.0, 36°C, day 3) 1.1%. In addition, the drug dissociation ratio (pH8.0, 36°C, day 4) came to 2.8%; the drug dissociation ratio (pH8.0, 36°C, day 5) came to 3.8%; the drug dissociation ratio (pH8.0, 36°C, day 6) is recorded as 4.3%; the drug dissociation ratio (pH8.0, 36°C, day 7) turned out to be 2.8%.

The record behind these values is patent US10098962B2, “Glycosaminoglycan derivative and method for producing same” (Seikagaku Corporation, priority 2013, dated 2018).
